## Measured affinities in a library of Ab-95 light chain variants

All variants were tested on one target, the spike HR2 peptide PDVDLGDISGINAS (SARS-CoV-2).

Each scFv is VH, three GGGGS repeats, VL, as in the parent Ab-95, and differs from it in the CDRs of the light chain only.
VH: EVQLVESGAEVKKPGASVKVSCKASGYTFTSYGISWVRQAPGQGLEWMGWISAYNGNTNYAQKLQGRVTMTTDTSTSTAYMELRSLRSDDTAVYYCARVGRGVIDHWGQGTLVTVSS
VL: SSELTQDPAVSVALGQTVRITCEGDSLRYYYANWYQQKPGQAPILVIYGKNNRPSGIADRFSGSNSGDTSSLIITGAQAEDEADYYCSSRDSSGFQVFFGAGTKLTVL

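The starting antibody came from a phage panning campaign against this peptide. Library AAYL52 holds single substitutions and randomly drawn double and triple substitutions in the CDRs. The scFvs were displayed on barcoded MATa yeast, the peptide on MATalpha yeast. Pairs that bind mate more often; barcode pairs of the diploids are counted by sequencing. A regression on co-assayed BCL2-family reference pairs converts the normalised counts of each replicate to an apparent Kd. Mating was done three times.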

Substitutions are numbered in sequence along the VL above, starting at 1 (not Kabat). All variants listed here change R53 of the VL, counted from its first residue. Numbers give log10(Kd / nM), so 0 is 1 nM and 3 is 1 µM. Smaller is tighter. An entry "ND" has no value in the source: the pair was not observed among the diploids in that replicate. This suggests poor binding but is not conclusive.

The variant K50D/R53T/S55I showed 3.25, 3.07, 2.24 (controls 2 of 9).
The variant Y31M/N52E/R53H showed 1.95, 1.88, 1.89 (controls 2 of 9).
The variant R28A/N51I/R53Q showed ND, ND, ND (controls 2 of 9).
The variant K50N/R53V/P54L showed 3.01, 3.49, 2.30 (controls 1 of 9).
The variant Y31H/R53S/R90H showed ND, ND, ND (controls 2 of 9).
The variant L27M/R53K/S93V showed ND, 4.28, ND (controls 0 of 9).
The variant A32I/R53I/F95E showed ND, ND, ND (controls 1 of 9).
The variant N52H/R53N/S89Y showed ND, ND, ND (controls 0 of 9).
The variant K50C/R53T showed 4.25, ND, ND (controls 4 of 9).
The variant R28F/N33A/R53E showed 4.11, ND, 4.19 (controls 1 of 9).
The variant R53Y/Q96P showed 3.20, 5.41, ND (controls 0 of 9).
The variant D25Q/R53T/Q96G showed ND, ND, ND (controls 5 of 9).
The variant Y31L/N52D/R53D showed 3.38, 4.07, 4.28 (controls 3 of 9).
The variant Y30Q/R53A/Q96K showed 1.00, 0.86, 0.40 (controls 2 of 9).
The variant S26R/N51P/R53C showed ND, 4.93, ND (controls 3 of 9).
The variant N51G/R53V/F98L showed 2.85, 2.85, 2.54 (controls 4 of 9).
The variant R53A/S93D/V97G showed 3.39, 3.57, 3.12 (controls 2 of 9).
The variant S26T/Y29H/R53T showed 3.15, 2.66, 2.92 (controls 3 of 9).
The variant S26H/R53H/D91Y showed ND, 2.65, ND (controls 2 of 9).
The variant Y30W/R53L/G94L showed 3.89, 3.90, 2.66 (controls 3 of 9).
The variant G24P/R53Y/S89I showed ND, ND, 3.51 (controls 2 of 9).
The variant D25Y/R53A/F98K showed ND, 5.25, ND (controls 2 of 9).
The variant R53I/S93R/F98M showed ND, 4.60, ND (controls 2 of 9).
The variant G49A/R53Q/F98C showed ND, ND, ND (controls 1 of 9).
The variant N51H/N52V/R53I showed 4.49, 3.74, 3.95 (controls 3 of 9).
The variant L27W/R53S/S89T showed ND, ND, 3.13 (controls 0 of 9).
The variant R28S/G49H/R53V showed 4.56, 5.70, 4.03 (controls 3 of 9).
The variant A32M/R53F/S89T showed ND, ND, 3.84 (controls 3 of 9).
The variant G24L/R53I/S93F showed 4.10, ND, ND (controls 3 of 9).
The variant G24H/Y29L/R53W showed 4.03, ND, ND (controls 2 of 9).
The variant G24C/R53E/P54S showed 3.38, ND, ND (controls 1 of 9).
The variant R28F/A32D/R53C showed ND, ND, ND (controls 2 of 9).
The variant L27Y/R53G/G94M showed 5.05, 5.17, ND (controls 5 of 9).
The variant Y29R/R53L/Q96E showed 3.73, 3.44, 2.72 (controls 2 of 9).
The variant R53L/R90T/Q96T showed ND, ND, ND (controls 2 of 9).
The variant S26V/R53G/S89R showed 2.77, 4.77, ND (controls 7 of 9).
The variant R53G/S55I showed 4.84, 3.50, 3.95 (controls 1 of 9).

The opening 6 entries, copied out:

With K50D/R53T/S55I the result was 3.25, 3.07, 2.24 (controls 2 of 9).
With Y31M/N52E/R53H the result was 1.95, 1.88, 1.89 (controls 2 of 9).
With R28A/N51I/R53Q the result was ND, ND, ND (controls 2 of 9).
With K50N/R53V/P54L the result was 3.01, 3.49, 2.30 (controls 1 of 9).
With Y31H/R53S/R90H the result was ND, ND, ND (controls 2 of 9).
With L27M/R53K/S93V the result was ND, 4.28, ND (controls 0 of 9).

Empty control strains, which show no peptide, gave a signal in 28% of pairings with library AAYL52; the median was 3.91 and 95% of these signals were weaker than 2.90. No background was subtracted. The control count says in how many pairings with the empty strains this scFv gave a signal. Parent in this assay: reference entry 2.31, copy in this library 2.25.

Data: MIT Lincoln Laboratory AlphaSeq set, Engelhart et al. 2022, doi:10.1038/s41597-022-01779-4, as distributed in FLAb.